AlphaSeq binding of Ab-91 heavy chain variants to a spike HR2 peptide

All variants were tested on one target, the spike HR2 peptide PDVDLGDISGINAS (SARS-CoV-2).

The variants keep the light chain, the linker and the frameworks of Ab-91 (scFv order VL, the linker GGGGSGGGGSGGGGS, VH).
VL: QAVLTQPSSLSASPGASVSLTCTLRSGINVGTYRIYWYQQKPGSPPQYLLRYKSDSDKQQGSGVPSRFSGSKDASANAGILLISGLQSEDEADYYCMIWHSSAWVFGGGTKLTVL
VH: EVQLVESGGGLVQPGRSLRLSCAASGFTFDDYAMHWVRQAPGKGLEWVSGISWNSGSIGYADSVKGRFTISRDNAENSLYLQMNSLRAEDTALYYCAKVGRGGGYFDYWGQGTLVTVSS

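In library AAYL51, one, two or three CDR residues were substituted; doubles and triples were drawn at random. In AlphaSeq, yeast of one mating type display the scFv and yeast of the other type display the target. After mating in shaken culture at 30 °C for 16 h, diploids were selected and their barcode pairs sequenced. The ratio of observed to expected reads was calibrated, replicate by replicate, on BCL2-family standards whose Kd was known from biolayer interferometry. Each pool was mated in three replicate cultures.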

Changes read parent residue, position, new residue, counted from the first residue of the VH shown. This list gathers variants with a substitution at M34 (VH, numbered from residue 1). Kd is apparent (estimated from mating counts) and averaged on the log scale over replicates with a signal. Smaller is tighter. Where no diploid with the target was found in any replicate, the entry reads "nd": below detection, most likely a poor binder, though not proof of it. As a blank, each scFv also met three strains without target: over library AAYL51, 21% of these pairings were detected, typically at 34 µM and seldom below 1.8 µM.

Variant A33Y/M34P/Y60I gave 49 µM (3 of 3 replicates). With M34R/R101I/G104M the result was 3.6 µM (2 of 3 replicates). Variant M34P/V64S/Y105G gave nd (0 of 3 replicates). With G26K/Y32E/M34T the result was 63 µM (2 of 3 replicates). Variant D31E/M34H/G104Y gave 6.3 µM (1 of 3 replicates). With G26R/M34F/S55M the result was nd (0 of 3 replicates). With M34Q/G104H/D107C the result was 2.2 µM (1 of 3 replicates). Variant A33T/M34D gave nd (0 of 3 replicates).

Variant Y32M/M34T/S57D showed 34 µM (1 of 3 replicates). For A33T/M34N/S63E, the assay gave nd (0 of 3 replicates). Variant T28I/M34N/G104N showed nd (0 of 3 replicates). With M34G/S63Q/V99A the result was nd (0 of 3 replicates). Variant M34N/S57T gave 190 µM (3 of 3 replicates). For G26I/M34R/G59R, the assay gave 3.2 µM (1 of 3 replicates). For M34G/G50S, the assay gave nd (0 of 3 replicates). Variant A33V/M34R/W53Q gave nd (0 of 3 replicates).

Variant M34F/S63Q showed 270 nM (3 of 3 replicates). For T28N/M34K/A61G, the assay gave nd (0 of 3 replicates). With F27Q/M34F/Y108V the result was 6.7 µM (1 of 3 replicates). For M34Y/G100R/G104R, the assay gave 25 µM (1 of 3 replicates). For F27V/M34W/R101K, the assay gave 120 µM (2 of 3 replicates). Variant M34D/S52Q/G100E showed nd (0 of 3 replicates). For M34T/N54C, the assay gave 1.9 µM (1 of 3 replicates). With M34L/W53I/A61R the result was 97 µM (3 of 3 replicates).

For M34D/G103C/F106H, the assay gave 67 µM (1 of 3 replicates). With M34E/V64I/G103Y the result was 5.5 µM (2 of 3 replicates). Variant Y32N/M34V/Y108F gave nd (0 of 3 replicates). For M34F/I51W/W53G, the assay gave nd (0 of 3 replicates). With F27C/M34G/G100Y the result was nd (0 of 3 replicates). For M34S/G102Q, the assay gave 46 µM (2 of 3 replicates). With M34H/S57L/F106Y the result was nd (0 of 3 replicates). Variant M34K/N54H/G100S gave nd (0 of 3 replicates).

Variant M34F/W53Q/K65F gave nd (0 of 3 replicates). With M34V/V99A the result was nd (0 of 3 replicates). Variant M34V/Y60R/G100H showed 110 µM (1 of 3 replicates). Variant M34N/S57W/D107R showed 240 µM (1 of 3 replicates). Variant T28R/M34H/G50F gave 84 µM (2 of 3 replicates). With M34K/G56F/G102T the result was 300 µM (2 of 3 replicates). With M34I/G102W/Y105S the result was nd (0 of 3 replicates). Variant M34H/G102E/Y108E gave nd (0 of 3 replicates).

Variant M34H/N54M/G59T showed nd (0 of 3 replicates). Variant Y32M/M34Y/K65R gave nd (0 of 3 replicates). With M34E/S52T/G100R the result was 70 µM (3 of 3 replicates). Variant D30P/M34V/S55Y gave nd (0 of 3 replicates). For M34W/I58M/V99F, the assay gave nd (0 of 3 replicates). For M34A/F106L, the assay gave nd (0 of 3 replicates). Variant M34F/W53Q/G102Q gave 7.3 µM (1 of 3 replicates). Variant D31Y/M34T/Y60N showed nd (0 of 3 replicates).

Repeated from above, the 5 best binders with a signal in all replicates:

| changes | Kd (apparent) | replicates with signal |
|---|---|---|
| M34F/S63Q | 270 nM | 3/3 |
| A33Y/M34P/Y60I | 49 µM | 3/3 |
| M34E/S52T/G100R | 70 µM | 3/3 |
| M34L/W53I/A61R | 97 µM | 3/3 |
| M34N/S57T | 190 µM | 3/3 |

Values reported by Engelhart et al. 2022, doi:10.1038/s41597-022-01779-4 (FLAb copy).